This test concerns the target WD repeat-containing protein 5, N-terminal truncation (WDR5^23–334) (UniProt P61964 23-334). Put plainly: fluorescence polarisation; steady-state FP anisotropy; 50 nM FITC-labeled peptide, serially diluted WDR5; 150 mM NaCl, 20 mM Tris-HCl, 1 mM TCEP, 0.005% tween 20, pH 7.5, 1 h at room temperature; four-parameter logistic fit. Particulars: both partners purified. In general terms: Polarisation of emitted light reports the rotation of a fluorescent probe.

In general, Kd refers to the concentration at which binding is half-saturated. High values mean lower affinity, low ones higher affinity.

B1: fluorescein isothiocyanate (FITC)-labeled MYCWBM peptide (peptide)
peptide: QEDEEEIDVVSVE
modifications: fluorescein isothiocyanate (FITC) label, position not stated
B1 registered a Kd of 5 ± 0.9 µM.

Values taken from publication PMC11308778, “Real-Time Measurement of a Weak Interaction of a Transcription Factor Motif with a Protein Hub at Single-Molecule Precision” (ACS Nano, 2024).
